Laboratory results as given in ChEMBL document CHEMBL4184196, “Design, synthesis, and evaluation of polyamine-memantine hybrids as NMDA channel blockers” (Bioorg Med Chem, 2018).
Where a name gives a salt, the structure may show the parent alone.

The chains behind the UniProt entries cited, without tags or fusion partners.
UniProt Q00960, whole entry: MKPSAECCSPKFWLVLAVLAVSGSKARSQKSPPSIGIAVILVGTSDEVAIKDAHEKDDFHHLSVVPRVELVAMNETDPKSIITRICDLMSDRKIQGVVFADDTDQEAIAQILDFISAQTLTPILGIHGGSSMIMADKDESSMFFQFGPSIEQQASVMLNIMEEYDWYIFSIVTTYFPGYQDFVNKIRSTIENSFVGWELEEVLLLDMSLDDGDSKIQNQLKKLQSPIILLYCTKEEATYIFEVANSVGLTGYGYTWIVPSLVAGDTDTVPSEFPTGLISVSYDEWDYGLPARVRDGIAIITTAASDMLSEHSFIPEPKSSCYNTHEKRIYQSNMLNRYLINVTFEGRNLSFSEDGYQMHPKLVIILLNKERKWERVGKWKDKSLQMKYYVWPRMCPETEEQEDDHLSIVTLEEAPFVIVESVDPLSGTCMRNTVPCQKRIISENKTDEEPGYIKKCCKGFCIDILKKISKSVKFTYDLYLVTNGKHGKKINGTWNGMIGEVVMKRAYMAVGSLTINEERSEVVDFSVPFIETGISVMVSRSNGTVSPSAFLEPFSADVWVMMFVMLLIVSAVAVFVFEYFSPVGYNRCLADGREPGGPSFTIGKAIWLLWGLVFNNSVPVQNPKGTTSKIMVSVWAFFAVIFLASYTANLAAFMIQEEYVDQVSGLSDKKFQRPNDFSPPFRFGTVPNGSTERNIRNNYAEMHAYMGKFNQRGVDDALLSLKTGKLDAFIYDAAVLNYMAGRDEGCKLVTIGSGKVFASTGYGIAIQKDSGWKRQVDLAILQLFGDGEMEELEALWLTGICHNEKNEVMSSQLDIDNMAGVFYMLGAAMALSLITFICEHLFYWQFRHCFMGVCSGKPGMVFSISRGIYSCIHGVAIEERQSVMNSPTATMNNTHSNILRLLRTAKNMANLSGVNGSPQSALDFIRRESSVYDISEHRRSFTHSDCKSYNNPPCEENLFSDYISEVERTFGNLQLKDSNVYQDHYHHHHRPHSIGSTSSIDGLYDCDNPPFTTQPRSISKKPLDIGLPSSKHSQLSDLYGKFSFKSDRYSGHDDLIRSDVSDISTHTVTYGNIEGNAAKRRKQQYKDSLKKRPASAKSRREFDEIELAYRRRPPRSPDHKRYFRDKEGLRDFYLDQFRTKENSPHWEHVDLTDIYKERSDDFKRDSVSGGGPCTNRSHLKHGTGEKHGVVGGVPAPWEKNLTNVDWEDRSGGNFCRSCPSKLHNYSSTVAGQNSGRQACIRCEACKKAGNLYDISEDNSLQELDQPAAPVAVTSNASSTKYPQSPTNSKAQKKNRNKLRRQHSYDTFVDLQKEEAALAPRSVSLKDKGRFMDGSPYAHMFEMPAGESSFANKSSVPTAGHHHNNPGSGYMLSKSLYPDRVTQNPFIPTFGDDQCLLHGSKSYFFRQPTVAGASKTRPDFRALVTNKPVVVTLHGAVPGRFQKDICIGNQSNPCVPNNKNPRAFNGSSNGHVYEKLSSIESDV

Biological target: Glutamate NMDA receptor; Grin1/Grin2b (Rattus norvegicus, UniProt P35439+Q00960)
Experiment: Antagonist activity at rat brain GluN1/GluN2B receptor expressed in Xenopus laevis oocytes assessed as inhibition of glutamate/glycine-induced channel current by two electrode voltage clamp method
Format: cell-based

Question: With CC12CC3CC(C)(C1)CC(N)(C3)C2 [MEMANTINE HYDROCHLORIDE] as the compound, how does the IC50 read?
Answer: Its IC50 is 2100 nM.
